# Experimental data from PubChem BioAssay AID736 (The Scripps Research Institute Molecular Screening Center, 2007).
# Protein sequences, listed by entry. Tags and fused reporters are not part of them. Lines headed by an entry give the natural chain unless they say otherwise; changes in a name come on top.
# UniProt O95136: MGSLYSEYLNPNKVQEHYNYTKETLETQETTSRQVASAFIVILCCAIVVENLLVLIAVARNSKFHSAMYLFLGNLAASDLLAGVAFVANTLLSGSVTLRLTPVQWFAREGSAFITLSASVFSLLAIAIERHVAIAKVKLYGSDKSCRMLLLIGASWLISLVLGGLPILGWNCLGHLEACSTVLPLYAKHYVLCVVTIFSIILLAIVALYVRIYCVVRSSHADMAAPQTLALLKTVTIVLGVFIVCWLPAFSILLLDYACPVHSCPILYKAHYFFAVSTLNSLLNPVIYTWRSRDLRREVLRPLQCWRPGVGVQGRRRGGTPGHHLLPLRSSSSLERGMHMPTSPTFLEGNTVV
# This is a selection; strong and weak results do not stand in their true shares. Calls of active or inactive are those of the source. Cut-off read from the data, not from the text of the source: active = inhibition above about 45%; inactive = the rest.
# Target: Sphingosine 1-phosphate receptor 2 (Homo sapiens) (UniProt O95136)
# Test: human S1P2 receptor antagonists, primary screen, cell-based (AID 736);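 note: CRE beta-lactamase reporter cells expressing human S1P2 stimulated with S1P; 0% = agonist at EC80 alone and 100% = agonist plus reference antagonist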
# Conditions: cell-based S1P2 antagonist assay, at 5 µM, stronger effect = higher value
row,SMILES,inhibition
1,CC1(CBr)Cn2c(nc3ccccc3c2=O)S1 (stereo not drawn),inactive: 4.7%
2,O=P1(Nc2ccccn2)COc2ccccc2OC1,inactive: -8.31%
3,Clc1n[nH]nc1-c1nn[nH][15n]1,inactive: -7.64%
4,O=P1(Nc2ncccn2)COc2ccccc2OC1,inactive: 15.8%
5,Cc1ccc(OCC(=O)OC2CN3CCC2CC3)cc1 (stereo not drawn),inactive: -18.7%
6,O=P1(Nc2ccc(Br)cn2)COc2ccccc2OC1,inactive: 13.3%
7,Cc1nn(-c2ccccc2)c2c1P(=O)(N1CCOCC1)N(C)C(c1ccccc1)=N2 (stereo not drawn),inactive: 14.4%
8,CCOP1(=S)c2c(C)nn(CCC#N)c2N=C(c2ccc(F)cc2)N1C (stereo not drawn),inactive: 5.98%
9,O=[N+]([O-])c1ccc2c(c1)nnn2O,inactive: -10.7%
10,CCOP1(=S)c2c(C)nn(CCC#N)c2N=C(c2ccccc2F)N1C (stereo not drawn),inactive: 8.32%
11,Cc1cccc(OCC(=O)OC2CN3CCC2CC3)c1 (stereo not drawn),inactive: -20.5%
12,O=C(OC1CN2CCC1CC2)C12CC3CC(CC(C3)C1)C2 (stereo not drawn),inactive: -15.2%
13,ClCCSc1nnc(-c2cccnc2)o1,inactive: 4.03%
14,CCN(CC)C(=S)SC(NC=O)C(Cl)(Cl)Cl (stereo not drawn),inactive: 4.52%
15,CCC(C)N(CC(C)C)C(=S)SC(NC(C)=O)C(Cl)(Cl)Cl (stereo not drawn),inactive: 13%
16,COP1(=S)c2c(C)nn(CCC#N)c2N=C(c2ccc(F)cc2)N1C (stereo not drawn),inactive: 5.13%
17,O=C(COc1ccccc1)OC1CN2CCC1CC2 (stereo not drawn),inactive: 8.42%

row,SMILES,inhibition
1,CC1CCN(C(=O)Oc2c(Cl)cc(Cl)c3cccnc23)CC1,inactive: 3.78%
2,CCc1nc2c(n1)c1c(non1O)c1c2no[n+]1[O-],inactive: 18.6%
3,O=[N+]([O-])c1cccc2n[nH]nc12,inactive: -17.9%
4,CC(=O)N1C2C3N(C(C)=O)C1C1N(C(C)=O)C(C(N1C(C)=O)N3C(C)=O)N2C(C)=O,inactive: -1.3%
5,CCOP(=O)(Nc1ccccc1)OCC,inactive: -9.17%
6,Oc1ccccc1CNc1ccccn1,inactive: 7.59%
7,Cc1c2non([O-])c-2c(C)[n+](=O)[n+]1[O-],inactive: -14.8%
8,CC(C)CC(=O)NC(Sc1ccc(Cl)cc1)C(Cl)(Cl)Cl (stereo not drawn),inactive: 11.3%
9,CN1CCCC(OC(=O)C(c2ccccc2)c2ccccc2)C1 (stereo not drawn),inactive: 0.9%
10,O=P1(Nc2nc3ccc(Cl)cc3s2)COc2ccccc2O1 (stereo not drawn),inactive: 2.22%
11,CCC(=O)N1C2C3N(C(=O)CC)C1C1N(C(=O)CC)C(C(N1C(=O)CC)N3C(=O)CC)N2C(=O)CC,inactive: -12.7%
12,COC(=O)c1cc2c(s1)N=C(c1ccccc1)N(C)P2(=O)N1CCOCC1 (stereo not drawn),inactive: -15.3%
13,CCOC(=O)NC(Sc1ccccc1)C(Cl)(Cl)Cl (stereo not drawn),inactive: -10.7%
14,O=C(OC1CN2CCC1CC2)c1cccc(Cl)c1 (stereo not drawn),inactive: 7.05%
15,O=P(Nc1nccs1)(c1ccccc1)c1ccccc1,inactive: -12.8%
16,c1nnnn1CCn1cnnn1,inactive: 0.31%
